{"source": "patent US9034928B2", "about": "“Methods for metabolic imaging” (IMAGNX, Inc., priority 2011, dated 2015)", "origin": "cited, not measured here", "conditions": "statement without a test; cited from earlier work", "data": [{"substance": "^13C succinate [reference compound]", "values": [{"measurement": "transport across biological membranes", "result": "poorly transported"}]}]}
